# Assay results as given in patent US20190091227A1, “METHODS FOR TREATING ER+, HER2-, HRG+ BREAST CANCER USING COMBINATION THERAPIES COMPRISING AN ANTI-ERBB3 ANTIBODY” (Merrimack Pharmaceuticals, Inc., priority 2016, published 2019).
# System: CDK2
# Assay: CDK2 activation (phospho-Thr160) by Western blotting in MCF7 cells
# Type: cell-based, human
# Conditions: MCF7, agent alone, 20-24 hours; HRG 10 nM, fulvestrant, palbociclib, abemaciclib 100 nM
# Procedure: Cellular lysates were prepared by lysis in MPER lysis buffer with the addition of protease and phosphatase inhibitors for 30 minutes on ice. Cellular debris was removed by centrifugation at 10,000 rpm. Proteins were analyzed by Western blotting according to standard protocols.
compound,measurement,value
"CCN1CCN(Cc2ccc(Nc3ncc(F)c(-c4cc(F)c5nc(C)n(C(C)C)c5c4)n3)nc2)CC1 [abemaciclib, 2-pyrimidinamine, N-(5-((4-ethyl-1-piperazinyl)methyl)-2-pyridinyl)-5-fluoro-4-(4-fluoro-2-methyl-1-(1-methylethyl)-1H-benzimidazol-6-yl), reference compound]",CDK2 activation,inhibited CDK2 activation
